Experimental data from published antibiotic growth screens (doi:10.1038/s41589-023-01349-8).
The other results are listed elsewhere or left out.

The compounds below were run on A. baumannii ATCC 17978 (assay: relative growth (fraction of control); higher = less inhibition). Conditions: 50 µM.

How did the relative growth turn out when `CO[C@@H]1CN(C)C(=O)c2cc(NC(=O)NC3CCCCC3)ccc2OC[C@@H](C)N(CCc2ccccc2)C[C@@H]1C` was run?
Its relative growth is 1.1.

`CC(=O)N1CCn2nncc2C[C@@]1(C)C1CC1` was tested. Which relative growth did it give?
The relative growth was 0.914.

Which relative growth does the source give for `COCC(=O)OCn1nnc2ccccc2c1=O` here?
Its relative growth is 0.893.

`Nc1ncnc2c1ncn2[C@@H]1O[C@H](CO)[C@@H](O)[C@H]1O` was tested. Which relative growth did it give?
Its relative growth is 1.06.

How did the relative growth turn out when `COCC(=O)N1C[C@H](C)[C@H](OC)CN(C)C(=O)c2ccc(NC(=O)c3cc(C)on3)cc2OC[C@H]1C` was run?
Its relative growth is 1.

For `COc1cc2ccnc(CCCN)c2cc1OC`, which relative growth is on record?
The relative growth was 0.987.

`C[C@H]1CN([C@@H](C)CO)C(=O)c2cc(C#CCc3ccccc3)cnc2O[C@@H]1CN(C)C(=O)Cc1cccnc1` was tested. Which relative growth did it give?
Its relative growth is 0.998.

Which relative growth does the source give for `NC(=O)[C@H]1Cc2ccccc2N1` here?
Its relative growth is 1.08.

With `COc1ccc2c(c1)OCC(Cc1ccc(O)c(OC)c1)C2=O` (stereo not drawn) as the compound, how does the relative growth read?
Its relative growth is 0.882.

How did the relative growth turn out when `CC(C)C#Cc1cnc2c(c1)C(=O)N([C@H](C)CO)C[C@@H](C)[C@@H](CN(C)S(=O)(=O)c1cn(C)cn1)O2` was run?
The relative growth was 1.04.

Which relative growth does the source give for `C=CC[C@@H](CC(=O)N[C@H](CO)Cc1ccccc1)C(=O)NCCOC(=O)[C@H](CC=C)CC(=O)OC(C)(C)C` here?
Its relative growth is 0.577.

With `CCCOc1ccnc2c1c(=O)n(C)c(=O)n2C` as the compound, how does the relative growth read?
The relative growth was 0.924.

With `O=C(O)c1cc2ccccc2c(Cc2c(O)c(C(=O)O)cc3ccccc23)c1O.OCCOCCN1CCN(C(c2ccccc2)c2ccc(Cl)cc2)CC1` as the compound, how does the relative growth read?
Its relative growth is 0.966.

How did the relative growth turn out when `C=C(C)[C@@H]1CC[C@]2(C(=O)O)CC[C@]3(C)[C@H](CCC4[C@@]5(C)CC[C@H](O)C(C)(C)C5CC[C@]43C)[C@@H]12` (stereo partly drawn) was run?
Its relative growth is 0.969.

How did the relative growth turn out when `COC(=O)[C@@H]1CC(=O)N(C(C)C)C1` was run?
Its relative growth is 0.979.

`CCNc1nc(=O)cc(F)[nH]1` was tested. Which relative growth did it give?
Its relative growth is 0.884.

How did the relative growth turn out when `C[C@@H]1CN([C@@H](C)CO)S(=O)(=O)c2ccc(-c3ccncc3)cc2O[C@H]1CN(C)C(=O)c1cccc(F)c1` was run?
Its relative growth is 0.991.

How did the relative growth turn out when `C[C@@H]1CN([C@@H](C)CO)S(=O)(=O)c2ccc(-c3cncnc3)cc2O[C@@H]1CN(C)C(=O)Cc1ccncc1` was run?
The relative growth was 1.05.

For `COCC(=O)N[C@H]1C=C[C@@H](CC(=O)N2CCCCC2)O[C@@H]1CO`, which relative growth is on record?
The relative growth was 1.1.

How did the relative growth turn out when `CCN(CC)C(=O)c1cccnc1` was run?
Its relative growth is 0.849.

`CCN(CC)C(=O)c1cccc(C)c1` was tested. Which relative growth did it give?
Its relative growth is 0.959.

`O=C(C[C@@H]1CC[C@H](NS(=O)(=O)c2ccc(F)cc2)[C@H](CO)O1)N1CCC(Cc2ccccc2)CC1` was tested. Which relative growth did it give?
Its relative growth is 1.04.

With `CCCN(CCC)S(=O)(=O)c1ccc(C(=O)O)cc1` as the compound, how does the relative growth read?
Its relative growth is 1.01.

How did the relative growth turn out when `C[C@H]1O[C@H](O[C@H]2[C@H](O)[C@@H](O)[C@@H](O[C@H]3[C@H](O)[C@@H](O)C(O)O[C@@H]3CO)O[C@@H]2CO)[C@H](O)[C@@H](O)[C@@H]1N[C@H]1C=C(CO)[C@@H](O)[C@H](O)[C@H]1O` (stereo partly drawn) was run?
Its relative growth is 0.961.

How did the relative growth turn out when `O=C(C[C@@H]1CC[C@H](NC(=O)Nc2ccc3c(c2)OCO3)[C@H](CO)O1)NCCCN1CCOCC1` was run?
The relative growth was 1.01.

How did the relative growth turn out when `CN(C)CC(=O)N[C@H]1CC[C@H](CC(=O)NCCN2CCCCC2)O[C@H]1CO` was run?
The relative growth was 1.05.

How did the relative growth turn out when `CC(C)[Si](C#C[Si](C(C)C)(C(C)C)C(C)C)(O[C@H](C)c1cn([C@H](CO)Cc2ccccc2)nn1)C(C)C` was run?
Its relative growth is 0.894.

`CCNC(=O)C[C@@H]1C=C[C@@H](NC(=O)C2CC2)[C@H](CO)O1` was tested. Which relative growth did it give?
The relative growth was 0.887.

With `N#CCCn1c(CC(N)=O)nc2ccccc21` as the compound, how does the relative growth read?
The relative growth was 1.06.

With `COc1ccccc1CNC(=O)C[C@H]1C[C@@H]2c3cc(NC(=O)C4CCOCC4)ccc3O[C@@H]2[C@@H](CO)O1` as the compound, how does the relative growth read?
Its relative growth is 1.05.

For `C[C@@H]1CN([C@@H](C)CO)C(=O)c2cc(C#Cc3cccnc3)cnc2O[C@H]1CN(C)S(C)(=O)=O`, which relative growth is on record?
The relative growth was 1.08.

For `C[C@@H](Sc1nc2ncnc(N)c2[nH]1)C(=O)O`, which relative growth is on record?
The relative growth was 0.921.

Which relative growth does the source give for `COc1ccc(C(=O)NCC(=O)O)cc1` here?
The relative growth was 1.03.

How did the relative growth turn out when `C[C@@H]1CN([C@@H](C)CO)S(=O)(=O)c2ccc(C#Cc3cccnc3)cc2O[C@H]1CN(C)CC1CCOCC1` was run?
The relative growth was 0.78.

With `O=C(O)CSC(=S)N1CCOCC1` as the compound, how does the relative growth read?
Its relative growth is 0.963.

How did the relative growth turn out when `C[C@@H]1CN([C@@H](C)CO)S(=O)(=O)c2ccc(C#Cc3ccc(F)cc3)cc2O[C@H]1CN(C)C(=O)c1ccccn1` was run?
Its relative growth is 0.766.

For `O=C(O)[C@H]1CCCN1C(=O)c1cccnc1`, which relative growth is on record?
Its relative growth is 0.998.

With `CN(C)CCCCNC(=O)[C@H]1C[C@H]2C(=O)N3CCC[C@H]3C(=O)N2[C@H]1c1cccc(OCCO)c1` as the compound, how does the relative growth read?
The relative growth was 0.915.

How did the relative growth turn out when `O=C(C[C@@H]1CC[C@@H]2[C@H](COC[C@H](O)CN2S(=O)(=O)c2ccc(Cl)cc2)O1)N[C@H]1CCN(Cc2ccccc2)C1` was run?
Its relative growth is 0.963.

Which relative growth does the source give for `O=C([O-])CCC(=O)OC[C@@H](NC(=O)C(Cl)Cl)[C@H](O)c1ccc([N+](=O)[O-])cc1.[Na+]` here?
The relative growth was 1.01.

With `O=C(O)CCCCC(=O)O` as the compound, how does the relative growth read?
Its relative growth is 1.39.

Which relative growth does the source give for `COCC(=O)N1C[C@H](C)[C@@H](OC)CN(C)C(=O)c2cc(NC(=O)c3ccc(OC)cc3)ccc2OC[C@@H]1C` here?
The relative growth was 1.18.

With `Cc1ccc(-c2nc(-c3ccc(Cl)cc3)cs2)cc1F` as the compound, how does the relative growth read?
The relative growth was 0.968.
